Measured values from patent US8263636B2, “Dual alanyl aminopeptidase and dipeptidyl peptidase iv inhibitors for functionally influencing different cells and for treating immunological inflammatory, neuronal and other diseases” (IMTM GmbH, priority 2003, dated 2012).
Like-named read-outs stand apart in the source and are kept apart here.

Sequences of proteins named here, by UniProt entry; tags and fusion partners are left off. A change or cut given only in a name is not applied to a line headed by its entry.
UniProt P15144: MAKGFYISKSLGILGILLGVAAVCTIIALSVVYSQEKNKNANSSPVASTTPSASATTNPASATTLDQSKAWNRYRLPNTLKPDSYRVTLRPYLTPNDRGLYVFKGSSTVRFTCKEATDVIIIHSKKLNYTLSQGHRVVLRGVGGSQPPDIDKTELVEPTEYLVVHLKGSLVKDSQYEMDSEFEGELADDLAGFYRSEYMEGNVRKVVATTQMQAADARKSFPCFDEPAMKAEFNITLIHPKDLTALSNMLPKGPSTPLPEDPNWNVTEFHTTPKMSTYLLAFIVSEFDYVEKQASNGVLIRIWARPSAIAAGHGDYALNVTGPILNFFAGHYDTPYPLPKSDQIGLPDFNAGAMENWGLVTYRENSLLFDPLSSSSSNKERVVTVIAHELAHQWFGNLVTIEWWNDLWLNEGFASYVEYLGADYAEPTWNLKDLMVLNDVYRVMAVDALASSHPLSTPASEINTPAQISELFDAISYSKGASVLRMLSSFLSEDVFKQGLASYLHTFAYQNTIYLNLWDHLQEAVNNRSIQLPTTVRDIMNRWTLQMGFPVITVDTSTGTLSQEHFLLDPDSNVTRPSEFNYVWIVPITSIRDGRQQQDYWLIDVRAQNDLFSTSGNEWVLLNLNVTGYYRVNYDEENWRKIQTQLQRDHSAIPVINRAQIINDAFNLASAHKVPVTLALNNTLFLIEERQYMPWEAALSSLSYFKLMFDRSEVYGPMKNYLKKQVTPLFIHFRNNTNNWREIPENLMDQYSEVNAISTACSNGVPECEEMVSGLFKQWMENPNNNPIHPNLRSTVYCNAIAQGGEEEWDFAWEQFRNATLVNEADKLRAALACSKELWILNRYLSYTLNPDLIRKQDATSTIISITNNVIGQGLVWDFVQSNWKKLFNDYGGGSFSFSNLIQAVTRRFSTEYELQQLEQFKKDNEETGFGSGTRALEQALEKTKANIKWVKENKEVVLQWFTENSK

Molecular target: alanyl aminopeptidase (APN) (Homo sapiens, UniProt P15144)
Assay: Inhibition of alanyl aminopeptidase enzymatic activity, fluorogenic substrate (Ala)2-rhodamine
Type: biochemical
Settings: read-out: IC50 APN, unmarked = IC-50

**Q.** Which results are given for Cc1cc(N(C)C)cc[n+]1C(=O)N(C)C?
**A.** IC50 (Table 8, second value of cell): 27.6 µM; IC50 (second value of cell DPIV/APN): 27.6 µM
